How the values were obtained:
[1] = body weight of xenograft mouse models as indicator of treatment-related toxicity; type: in vivo, BALB/cSlc-nu/nu nude mice; settings: all individual mice; FIG. 15A
Experimental: The KPL-4 cell line was maintained in DMEM (low glucose) (FUJIFILM Wako Pure Chemical Corporation, Osaka, Japan) supplemented with 10% FBS, 100 U/mL penicillin, and 100 μg/mL streptomycin (#15140122, Thermo Fisher Scientific, Waltham, MA, USA) (Kurebayashi J, Otsuki T, Tang CK, et al. Isolation and characterization of a new human breast cancer cell line, KPL-4, expressing the Erb B family receptors and interleukin-6. Br J Cancer. 1999; 79: 707-717. doi:10.1038/sj.bjc.6690114). The KPL-4 cells (7,500,000) were subcutaneously transplanted into the thigh of BALB/cSlc-nu/nu nude mice (Sankyo Lab Service, Inc., Tokyo, Japan). Proliferation of the subcutaneous tumor was monitored by measuring a tumor volume (0.5×length×width^2) using Vernier calipers, and the body weight of the animals was then monitored as an indicator of treatment-related toxicity. The tumor size of 20 mice increased at 44 days after the transplantation, and reached approximately 400 mm^3. These 20 mice were randomly classified into two groups each consisting of 10 mice, namely, a Kadcyla (registered trademark) group and a ZHER2:342-Cupid-His-Ax-SiPC group.

[2] = test system: KPL-4 xenograft tumor site, skin and major organs; assay: pathological analysis (H & E histology) of xenograft mouse models; type: in vivo, BALB/cSlc-nu/nu nude mice; settings: 97th day
Excerpt: Skin samples from xenograft tumor sites, and samples from other important organs including lung, heart, kidney, liver and gastrointestinal tract, were obtained from the mice. […] Stained slides were dehydrated again by being immersed in ethanol and then being immersed in xylene. […] The H & E-stained slides were histologically examined using the OLYMPUS cellSens Standard system (OLYMPUS, Tokyo, Japan).

With trastuzumab emtansine [Kadcyla] the “changes over time in body weight” value [1] was “moderate tendency of increasing the body weight”, the “mice with subcutaneous cysts surrounded by granuloma tissues” value [2] was “one” and the “granulomatous reaction in the subcutaneous region (frequency)” value ([2]; p<0.001, chi-square test) was 60%. The “granulomatous reaction in the subcutaneous region (mice affected/mice)” value ([2]; p<0.001, chi-square test) was 6/10.
